## Antibody variant affinities, Ab-95 light chain, assay 2

Values reported by Engelhart et al. 2022, doi:10.1038/s41597-022-01779-4 (FLAb copy).

Target: peptide PDVDLGDISGINAS, taken from heptad repeat 2 (HR2) of SARS-CoV-2 spike.

The variants keep the heavy chain, the linker and the frameworks of Ab-95 (scFv order VH, three GGGGS repeats, VL).
VH: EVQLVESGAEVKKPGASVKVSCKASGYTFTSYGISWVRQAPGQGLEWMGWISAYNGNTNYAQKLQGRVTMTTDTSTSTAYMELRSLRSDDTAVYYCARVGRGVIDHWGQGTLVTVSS
VL: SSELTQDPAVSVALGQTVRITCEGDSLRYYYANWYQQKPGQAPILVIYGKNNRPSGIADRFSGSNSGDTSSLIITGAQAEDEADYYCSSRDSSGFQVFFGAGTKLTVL

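The starting antibody came from a phage panning campaign against this peptide. Library AAYL52 holds single substitutions and randomly drawn double and triple substitutions in the CDRs. The assay is AlphaSeq: two haploid yeast populations carry antibody and antigen on their surface. Pairs that bind mate more often; barcode pairs of the diploids are counted by sequencing. Each replicate has its own calibration line, from reference interactions of the BCL2 family. There are three technical replicates.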

Positions count from residue 1 of the parent VL; S26T puts T in place of S.
Every variant below is changed at S88 of the VL (sequential numbering).
The Kd shown is the geometric mean over detected replicates; a lower Kd is a better binder.
An entry "nd" has no value in the source: the pair was not observed among the diploids in any replicate. This suggests poor binding but is not conclusive.
For reference, the parent read 200 nM as the reference entry and 180 nM as a member of this library.

With S26T/S88A/R90K the result was 19 µM (1 of 3 replicates).
With Y31D/A32Y/S88Y the result was 950 nM (3 of 3 replicates).
With L27K/K50E/S88Y the result was 8.7 µM (2 of 3 replicates).
With E23P/N33S/S88Y the result was 6.7 µM (1 of 3 replicates).
With Y30L/S88D/S89N the result was 220 nM (3 of 3 replicates).
With E23Y/Y31D/S88L the result was 36 nM (3 of 3 replicates).
With N52A/S88Y/F95C the result was 1.7 µM (1 of 3 replicates).
With R53C/S88T/S92V the result was 5.8 µM (3 of 3 replicates).
With Y29T/N51S/S88Y the result was 450 nM (3 of 3 replicates).
With Y30W/S88E/R90T the result was 3.0 µM (2 of 3 replicates).
With G24C/S88F/S92C the result was 92 µM (1 of 3 replicates).
With L27C/Y29W/S88P the result was 100 µM (1 of 3 replicates).
With P54S/S88A/R90W the result was 1.9 µM (3 of 3 replicates).
With A32L/S88K the result was nd (0 of 3 replicates).
With D25C/R28I/S88A the result was 7.4 µM (2 of 3 replicates).
With R28K/Y30V/S88I the result was 730 nM (3 of 3 replicates).
With K50N/R53C/S88M the result was 820 nM (3 of 3 replicates).
With N51I/S88Y/R90N the result was 1.4 µM (1 of 3 replicates).
With N52T/S88C/R90D the result was 2.1 µM (1 of 3 replicates).
With S88W/S89Y/R90N the result was 280 nM (3 of 3 replicates).
With E23Y/D25C/S88F the result was 29 µM (3 of 3 replicates).
With N51S/S88V the result was 630 nM (3 of 3 replicates).
With Y31V/S88Q/S93R the result was 7.1 µM (3 of 3 replicates).
With G24R/S26W/S88Y the result was 50 µM (1 of 3 replicates).
With Y31S/S88C/G94K the result was nd (0 of 3 replicates).
With A32H/N52Y/S88T the result was 53 µM (2 of 3 replicates).
With Y29S/S88Q/S93D the result was 320 nM (3 of 3 replicates).
With Y30H/S88A/G94A the result was 39 nM (3 of 3 replicates).
With R53P/S88V/Q96A the result was 2.8 µM (2 of 3 replicates).
With R28T/S55G/S88K the result was 780 nM (3 of 3 replicates).
With S88C the result was 130 nM (3 of 3 replicates).
With S88H the result was 110 nM (3 of 3 replicates).
With S88W/R90A the result was 490 nM (3 of 3 replicates).
With R53Q/P54C/S88R the result was 2.4 µM (1 of 3 replicates).
With S88L the result was 9.0 µM (1 of 3 replicates).
With S88W/F95I the result was 740 nM (1 of 3 replicates).
With K50Y/S88H/V97K the result was 3.9 µM (2 of 3 replicates).
With Y31L/K50Y/S88E the result was 1.4 µM (3 of 3 replicates).

Again, the first 2 entries without any signal:

A32L/S88K: nd (0 of 3 replicates).
Y31S/S88C/G94K: nd (0 of 3 replicates).

As a blank, each scFv also met three strains without target: over library AAYL52, 28% of these pairings were detected, typically at 8.2 µM and seldom below 800 nM.